For the data set the following is noted: for Blood Pressure: infusion from 9:00.
The mark [1] stands for this setting: Volunteer No. 1, 10 micrograms/kg.
The mark [2] stands for this setting: Volunteer No. 2, 10 micrograms/kg.

Structures are written as SMILES. Where “and” joins values, the source holds several entries; their conditions need not be identical. Equal values may be shown once. Read-outs that look alike come from different tables or passages of the source.

Consider one molecule from patent US4801614A, “Process for using endogenous enkephalins and endorphins to inhibit growth of tumerous cells” (TNI Pharmaceuticals, Inc., priority 1987, dated 1989).

Take `CSCC[C@H](NC(=O)[C@H](Cc1ccccc1)NC(=O)CNC(=O)CNC(=O)[C@@H](N)Cc1ccc(O)cc1)C(=O)O` [Methionine-Enkephalin, Tyr--Gly--Gly--Phe--Met]: the “Blood Pressure” value is 100/70 (Volunteer No. 1, 0.010 mg/kg, readings 1 p.m. to second day 8:55, time in the cited line); 100/70 and 110/70 (Volunteer No. 1, 0.010 mg/kg, readings 9:10 to second day 8:55, time in the cited line, 0.01 mg/kg); 130/80 (Volunteer No. 2, 0.010 mg/kg, readings 9:10 to next day 8:44, time in the cited line); 130/80 and 140/80 (Volunteer No. 2, 0.010 mg/kg, readings 11:00 to next day 8:44, time in the cited line, 0.01 mg/kg); 110/80 (Volunteer No. 3, 0.001 mg/kg, readings 9:10 to next day 8:55, time in the cited line); 120/80 and 110/80 (Volunteer No. 3, 0.001 mg/kg, readings 11:00 to next day 8:55, time in the cited line, 0.001 mg/kg). For the same molecule, the “Blood Pressure” value (Volunteer No. 4, one microgram per kg, readings 11:00 to next day 8:55, time in or above the cited line) is 100/80 and 110/70 and 120/80. Moreover, the Neurological evaluations entry under setting [1] is listed as “slight nystagmus 1 to 2 hours after infusion”. Besides, the “blood pressure, temperature or EKG” value under setting [1] is recorded as “No significant changes”. Moreover, the “heart rate and respiration” value under setting [1] is “Slight increase”. Under setting [2], the Neurological evaluation result is listed as “slight nystagmus 2 hours after infusion”. Besides, the “blood pressure, body temperature, or EKG” value under setting [2] was “No changes”. For the same molecule, the Heart Rate result (Volunteer No. 2, 10 micrograms/kg, afternoon following the infusion) is reported as “Slight decreases”. For the same molecule, the “heart rate and respiratory rate” value (Volunteer No. 3, 0.001 mg/kg, at the end of the infusion) is given as “Slight decreases”. In addition, the neurological finding result (Volunteer No. 3, 0.001 mg/kg, following the infusion) was “Slight nystagmus”.
